Measurements as given in patent US8318899B2, “Lytic domain fusion constructs and methods of making and using same” (Board of Supervisors of Louisiana State University and …, priority 2008, dated 2012).

Key:
NIH:OVCAR-3 xenograft = assay: OVCAR-3 ovarian cancer xenograft; assay type: in vivo; conditions: 2 mg/kg; procedural, not related to treatment
Procedure: To determine the efficacy of Phor18-LHRH (338613) on ovarian cancer xenografts that resemble the human disease, single and multiple dose studies were conducted. The xenograft model of the OVCAR-3 human ovarian cancer cell line that present functional LHRH receptors was used in this study. OVCAR-3 represents a slow growing xenograft model and secretes the tumor marker (cancer antigen 125, or […]). It's secretion can be used as treatment response and is a measure of drug activity. […]
A group of 9 tumor bearing mice was sacrificed on day 33 and served as baseline group. […] Tumor volumes and bodyweights were recorded twice weekly during the study, as well as overall veterinarian examination of mice was conducted.
Primary tumors, liver, kidney, pancreas, heart, lung, and spleen were collected, fixed in formalin and prepared for histological evaluation. Tumor weights were measured at necropsy, part of the tumors were frozen at −80° C. for LH/CG and LHRH receptor assay determination.
As a biomarker for drug activity, CA125 was determined in serum, collected from each individual mouse at necropsy using a Enzyme Linked Immunoassay for quantitative determination of ovarian cancer antigen CA125 (Assay kit Genway, Biotech, Inc. San Diego, Calif., Catalog #40-052-115009, # BC-1013 according to the manufacturer).
LHRH receptor levels were assessed from formalin fixed tumors. […]

MDA-MB435S xenograft = assay: MDA-MB435S xenograft, multiple dose regimen; assay type: in vivo, Nu/Nu mice; conditions: 0.002 and 0.2 mg/kg
Procedure: In order to determine the minimal effective dose necessary to reduce MDA-MB435S xenograft weights in a multiple dose regimen, Nu/Nu female mice, outbred strain, age 8 weeks (Charles River), were injected (s.c.) into the interscapular region with a MDA-MB435S (passage #253)/Matrigel suspension (2×10^6 cells/mouse) as previously described above. Phor18-LHRH (338613) (ID: 338613 lot# P080401) (0.002, and 0.2 mg/kg) were reconstituted in USP saline prior to dosing. The doses were given as a single bolus intravenous injection via lateral tail vein on days 15, 16, 17, 20, 21, 22, 23, 27, 28, 29, 30, 33, 34, 35, 36, 37, 38, 40, 41, 42 after tumor cell inoculation. Saline injections served as control groups.
Each treatment group consisted of 16 mice. During the entire study tumor volumes were recorded twice weekly. Final necropsy was conducted on day 45 after tumor cell injection. […] due to occlusion of the tail vein in most mice. At study endpoint body weight, tumor weights were determined and fixed in phosphate buffered 10% formalin.

human red blood cells = assay: Acute hemolytic activity on human RBC; assay type: cell-based; conditions: 0.5% human RBC, 2 h
Procedure: Hemolytic activity was determined in 96 well plates using a serial dilution of peptides exposed to 0.5% human RBC. Controls were saline (no RBC death) or 0.1% Triton X 100 (100% RBC lysis). The peptide concentrations ranged from 0 to 100 μM. Incubations were conducted for 2 h.

KFAKFAKKFAKFAKKFAKQHWSYGLRPG [Phor18-LHRH]
deaths on injection (NIH:OVCAR-3 xenograft): One mouse died during the first injection
effects on body weight or organ examination (MDA-MB435S xenograft): without any visible effects on body weight or organ examination
HA50 (hemolytic activity) (human red blood cells): 297 µM
